Legend:
ALS = details: cited from earlier work

Nc1nc2ccc(OC(F)(F)F)cc2s1 [riluzole, 6-(trifluoromethoxy)benzothiazol-2-amine]
prolongation of survival (ALS; ALS patients): several months
patients with liver damage (ALS): about 10%
survival compared to control mice (SOD1-G93A mice; riluzole alone): did not extend survival
survival (SOD1-G93A mice; treatment from 100 days of age): 159.7 ± 1.9 days

Reference: US11369596B2, “Methods of treating a neurodegenerative disease in a mammal in need thereof” (Thomas Jefferson University, priority 2013, dated 2022)
